The values that follow come from article PMC5241705 (ACS Infectious Diseases, 2016).

The chains behind the UniProt entries cited, without tags or fusion partners. Residues count along the entry.
UniProt G7CNL4, 1-513: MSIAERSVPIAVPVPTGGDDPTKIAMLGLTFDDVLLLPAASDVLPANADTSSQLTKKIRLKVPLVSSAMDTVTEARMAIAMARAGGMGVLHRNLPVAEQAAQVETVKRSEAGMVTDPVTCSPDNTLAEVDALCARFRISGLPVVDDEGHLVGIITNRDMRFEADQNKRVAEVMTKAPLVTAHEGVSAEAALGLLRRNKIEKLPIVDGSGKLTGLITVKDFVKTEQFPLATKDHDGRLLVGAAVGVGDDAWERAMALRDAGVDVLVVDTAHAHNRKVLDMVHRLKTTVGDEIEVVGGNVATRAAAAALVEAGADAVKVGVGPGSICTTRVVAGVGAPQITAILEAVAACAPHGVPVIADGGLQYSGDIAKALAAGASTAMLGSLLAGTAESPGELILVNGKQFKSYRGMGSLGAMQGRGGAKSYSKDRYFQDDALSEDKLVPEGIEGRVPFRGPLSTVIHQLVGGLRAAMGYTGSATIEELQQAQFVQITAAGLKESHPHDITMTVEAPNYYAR

The test system of one experiment is replicating H37Rv. Type of experiment: cell-based, Mycobacterium tuberculosis.
The next experiment deals with Mth GuaB2 (full-length) (Mycolicibacterium thermoresistibile, UniProt G7CNL4). Put plainly: biochemical.

For the compound `O=C(C1CCCCC1)N1CCN(S(=O)(=O)c2cccc3cnccc23)CC1` [VCC234718, N-(5-Isoquinolinylsulfonyl)-N’-cyclohexanoyl-piperazine], the “selectivity index (TD50/MIC)” value in the experiment on replicating H37Rv was no less than 8 fold. Besides, on Mth GuaB2 (full-length), the Ki (commonly a measure of affinity in units of concentration, obtained from inhibition or displacement) was found to be 130 nM.
